Source: patent US10398592B2, “Diagnostic methods and apparatus” (ForSight Vision4, Inc., priority 2011, dated 2019)

Columns and labels:
[1] = Diffusion coefficients and equivalent size estimated from molecular weight; assay type: physicochemical
Excerpt: If the reservoir solution is aqueous or has a viscosity similar to water, the value for the diffusion coefficient of the therapeutic agent (TA) in water at the temperature of interest may be used. […] (Molokhia et al, Exp Eye Res 2008): DTA,37C=DBSA,20C(η20C/η37C)(MWBSA/MWTA)^1/3 where MW refers to the molecular weight of either BSA or the test compound and η is the viscosity of water.
The diffusion constant of the stabilizer can be determined, for example, based on an estimate of hydrodynamic radius corresponding to the cube root of the molecular weight as described herein.
The diffusion coefficients of Table 2 can be determined based on weight for molecular weights up to about 2.5 M Daltons, and based on size above about 2.5 M Daltons.

[2] = in water at 20 C, measured value (Molokhia et al), cited from earlier work
[3] = hydrodynamic diameter of model proteins; cited from earlier work

Substance: bovine serum albumin [BSA]
- Diff Coeff ([1]; Table 2, 37 C, estimated from molecular weight): 9.0E−07 cm^2/s
- Diff Coeff ([1]; Temp 37 C, estimated from BSA value at 20 C): 9.1E−07 cm^2/s
- Equiv volume ([1]; assumes unit density, per molecule): 109.6 nm^3
- D/(Ran D) ([1]; diffusion relative to Ranibizumab): 0.90
- Diff Coeff [2]: 6.1E−07 cm^2/s
- Diff Coeff ([2]; listed as bovine serum albumin): 6.1 e-7 cm^2/s
- diameter [3]: 7.2 nm

Like-named read-outs stand apart in the source and are kept apart here.
